A short description of the data set: in vitro. As to conditions: rat.

pIC50: −log10 of the molar value.

As a reminder, the pIC50 is the negative decadic logarithm of the IC50, by convention in mol/L. Low values mean a high IC50, high ones a low IC50. As to `COc1cc([C@@H]2c3cc4c(cc3[C@@H](O)[C@H]3COC(=O)[C@H]23)OCO4)cc(OC)c1O` [DMEP, 4′-demethylepipodophyllotoxin], the negative logarithm of the IC50 (pIC50) was 4.51.

For the origin of these results see paper PMC9408963 (International Journal of Molecular Sciences, 2022).
